The values below are quoted from earlier work in patent US7317012B2, “Bicyclic heterocycles as cannabinoind-1 receptor modulators” (Bristol-Myers Squibb Company, priority 2005, dated 2008).

The conditions of the series: chronic administration for two weeks.

On to `Cc1c(C(=O)NN2CCCCC2)nn(-c2ccc(Cl)cc2Cl)c1-c1ccc(I)cc1` [AM-251], for which the adipose tissue mass entry is “decreased adipose tissue mass”.
